Assay results from patent publication US9675715B2, “Contrast agent for photoacoustic imaging” (CANON KABUSHIKI KAISHA, priority 2012, dated 2017).

What was measured:
[1] = tested on: sentinel lymph node (mouse popliteal lymph node); test: Photoacoustic imaging of sentinel lymph node after subcutaneous plantar administration; format: in vivo
Description: A commercially available photoacoustic imaging apparatus (Nexus128, manufactured by Endra Inc.) was used. Photoacoustic signals were measured at predetermined timings before and after the administration of a prepared contrast agent for PAI, and three-dimensional reconstruction data was acquired for each timing. The photoacoustic signal intensity in a region of interest (ROI) was measured on the basis of the resulting three-dimensional reconstruction data using software (GEHC MICROVIEW, GE Healthcare) or the like.
In examples of the present invention, the transfer of the contrast agent for PAI into a sentinel lymph node (SLN) was evaluated by the use of a mouse popliteal lymph node. Ten microliters of the contrast agent was administered subcutaneously into the plantar surface of a nude mouse. Photoacoustic imaging of the mouse popliteal lymph node was performed after 1 day.
The accumulation in a sentinel lymph node (SLN) was evaluated by photoacoustic imaging. […] Then an evaluation was made as to whether the sentinel lymph node was visualized 1 day after the administration by photoacoustic imaging. […] After the measurement, the SLN was removed. The removed SLN and an SLN into which no contrast agent was administered were juxtaposed to each other and subjected to photoacoustic imaging. FIG. 3 illustrates the results.

[2] = tested on: Colon 26 cells tumor; test: Accumulation of contrast agent in Colon 26 tumor, dye extraction and fluorescence; format: in vivo, mouse; conditions: intravenous, 13 nmol in terms of ICG, 24 hours
Description: Tumor model mice were prepared by subcutaneously implanting Colon 26 cells into BALB/c Slc-nu/nu mice.
Tumor model mice were prepared by subcutaneously implanting Colon 26 cells into BALB/c Slc-nu/nu mice. […] Furthermore, in this example, an aqueous solution of ICG (available from Pharmaceutical and Medical Device Regulatory Science of Japan) was used as a control sample.

[3] = Hydrodynamic average particle size by dynamic light scattering; format: physicochemical; conditions: DLS-8000
From the text: In this embodiment, the particle size of the particles may be determined by measuring the hydrodynamic average particle size using the dynamic light scattering (DLS) method with a dynamic light scattering spectrophotometer (DLS-8000, manufactured by Otsuka Electronics Co., Ltd).
As comparative examples, the average particle sizes of ICG (available from Pharmaceutical and Medical Device Regulatory Science of Japan), HSA, ICG-HSA (7)-encapsulating liposome particles, and ICG-encapsulating micellar particles are also described. […] The ICG-encapsulating micellar particles refer to micellar particles in which ICG is contained in surfactant micelles by a known emulsification technique.

[4] = Blood accumulation in Colon 26 tumor model mice; format: in vivo, mouse; conditions: intravenous, 13 nmol in terms of ICG
Description: Tumor model mice were prepared by subcutaneously implanting Colon 26 cells into BALB/c Slc-nu/nu mice. The aqueous ICG-HSA solutions were intravenously injected in volumes of 100 microliters each (13 nmol in terms of ICG) into the tumor model mice to evaluate the tumor accumulation. Furthermore, in this example, a compound was synthesized by the reaction of ICG-Sulfo-OSu with glycine in a molar ratio of 1:1 (hereinafter, abbreviated as “ICG-Gly”) and used as a control sample.
Tumor model mice were prepared by subcutaneously implanting Colon 26 cells into BALB/c Slc-nu/nu mice. The aqueous ICG-HSA solutions were intravenously injected in volumes of 100 microliters each (13 nmol in terms of ICG) into the tumor model mice to evaluate the tumor accumulation. Furthermore, in this example, an aqueous solution of ICG (available from Pharmaceutical and Medical Device Regulatory Science of Japan) was used as a control sample.
Table 8 describes the accumulation in the Colon 26 cell mass 24 hours after the administration of the aqueous ICG-HSA solutions and the control.

[5] = tested on: Colon 26 mouse colon cancer cells into which the HER2 gene was transferred; test: Accumulation in Colon 26 tumor into which the HER2 gene was transferred; format: in vivo; conditions: intravenous, 13 nmol in terms of ICG, 24 hours after administration
From the text: In the evaluation of tumor accumulation, female outbred BALB/c Slc-nu/nu mice (6 weeks old on purchase) (Japan SLC Inc.) were used. The mice were acclimated using standard feeds and beddings and given food and drinking water ad libitum for 1 week before cancer cells were transplanted. At approximately 1 week before an imaging experiment, 1×10^6 Colon 26 mouse colon cancer cells (Riken, Japan) were subcutaneously injected into the right shoulder and the right thigh of each mouse, and 1×10^6 Colon 26 mouse colon cancer cells into which the HER2 gene was artificially transferred were subcutaneously injected into the left shoulder and the left thigh of each mouse. Tumor cells had been all established by the time of the experiment. The body weights of the mice were between 17 and 22 g. Then 200 microliters (13 nmol in terms of ICG) of HER2-binding-molecule-immobilized ICG-HSA or ICG-HSA to which nothing was immobilized was intravenously injected into the tumor-bearing mice. The mice were euthanized with carbon dioxide 24 hours after administration. […] The fluorescence intensity of the solutions of the dye extracted from the tumor tissues and the standard solutions for calibration was measured with the solutions in the tubes using IVIS (registered trademark) Imaging System 200 Series (XENOGEN Corporation) to quantitatively determine the amount of the dye in the tumor tissues. […]

[6] = tested on: HER2-positive N87 cell line tumor; test: HER2-specific tumor accumulation, HER2-positive N87 tumor; format: in vivo, mouse; conditions: 1 day after administration
Description: (§1) To check HER2-specific tumor accumulation of the molecular probes (ICG-HSA, scFv-ICG-HSA, and scFv-HSA-ICG) prepared as described above, an experiment was performed as described below. The molecular probes were administered to tumor-bearing model mice into which the HER2-positive N87 cell line and the HER2-negative SUIT-2 cell line were implanted. The tumors were removed 1 day after the administration. To the tumors, 1% Triton X-100 was added. The mixtures were homogenized. Dimethyl sulfoxide (DMSO) was added to each resulting homogenate in an amount 9 times the amount of the homogenate, thereby preparing a solution. The fluorescence intensity of these solutions was measured to calculate the tumor accumulation [% ID/g] per tumor weight of the molecular probes administered to the mice. Furthermore, a value obtained by dividing the tumor accumulation in N87 by the tumor accumulation in SUIT-2 (N87/SUIT-2) was calculated as a value indicating HER2 specificity. […] The reason for this is as follows: scFv-HSA-ICG-7 and scFv-HSA-ICG-21 had the same HER2-binding capacity. Thus, for example, labeling with a large number of ICG molecules possibly promoted hepatic elimination with ICG.

[7] = biological target: T1, HER2 (Recombinant Human ErbB2/Fc Chimera) (Homo sapiens, UniProt P04626); test: Binding affinity for HER2 by surface plasmon resonance (ProteOn XPR36); conditions: SPR, Table 11 (combinations of HER2-binding molecules and linkers)
T1 construct: Fc (immunoglobulin Fc fusion partner); purchased R&D Systems, Inc

[8] = tested on: HER2-negative SUIT-2 cell line tumor; test: HER2-specific tumor accumulation, HER2-negative SUIT-2 tumor; format: in vivo, mouse; conditions: 1 day after administration
Description: as §1

Substance | Tumor accumulation 1 day after administration [2] | Hydrodynamic average particle size [3] | Blood accumulation 1 day after administration [4] | other results
ICG-HSA (7) | 19.7 % ID/g | 20 nm | 2.3 % ID/g | Photoacoustic signal from removed SLN ([1]; SLN removed 1 day after administration, compared with unadministered SLN (FIG. 3)): significant photoacoustic signal was observed; Visualization of SLN ([1]; photoacoustic imaging 1 day after subcutaneous administration into plantar surface of nude mouse, 130 nmol dye): clearly visualized; also recorded: visualizable
ICG-HSA (17.5) | 3.0 % ID/g | – | 0.2 % ID/g | –
human serum albumin [HSA] | – | 7.7 nm | – | –
ICG-HSA (1) | 8.9 % ID/g | – | 4.0 % ID/g | –
ICG-HSA (50) | 1.8 % ID/g | – | 0.5 % ID/g | –
ICG-HSA | – | – | – | HER2-positive tumor accumulation [5]: 9.6 % ID/g; Tumor accumulation (after 1 day) N87 [6]: 3.1 % ID/g; Binding affinity to HER2 (KD) [7]: unmea-; Tumor accumulation (after 1 day) SUIT-2 [8]: 3.0 % ID/g

Entries after “also recorded” stand apart in the source; their conditions may differ.
